Literature values as cited in paper PMC9794608 (Frontiers in Veterinary Science, 2022).

Test system: dogs
Conditions: in approximation with the dose and schedule tested; cited from earlier work

CC(=O)Nc1cccc(-n2c(=O)n(C3CC3)c(=O)c3c(Nc4ccc(I)cc4F)n(C)c(=O)c(C)c32)c1 [Trametinib, trametinib dimethyl sulfoxide]
Tolerability in dogs over 13-week periods: tolerated
